# The list shows a part of the results, in another mix than the full data. Activity calls are given as the source filed them.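 The calls were made as follows: active = inhibition above the mean of compounds falling within the control limits plus 3 SD of them (cut at about 14% in these data); inactive = the rest.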
# Protein sequences, listed by entry. Tags and fused reporters are not part of them.
# UniProt P02675, whole entry, looked up: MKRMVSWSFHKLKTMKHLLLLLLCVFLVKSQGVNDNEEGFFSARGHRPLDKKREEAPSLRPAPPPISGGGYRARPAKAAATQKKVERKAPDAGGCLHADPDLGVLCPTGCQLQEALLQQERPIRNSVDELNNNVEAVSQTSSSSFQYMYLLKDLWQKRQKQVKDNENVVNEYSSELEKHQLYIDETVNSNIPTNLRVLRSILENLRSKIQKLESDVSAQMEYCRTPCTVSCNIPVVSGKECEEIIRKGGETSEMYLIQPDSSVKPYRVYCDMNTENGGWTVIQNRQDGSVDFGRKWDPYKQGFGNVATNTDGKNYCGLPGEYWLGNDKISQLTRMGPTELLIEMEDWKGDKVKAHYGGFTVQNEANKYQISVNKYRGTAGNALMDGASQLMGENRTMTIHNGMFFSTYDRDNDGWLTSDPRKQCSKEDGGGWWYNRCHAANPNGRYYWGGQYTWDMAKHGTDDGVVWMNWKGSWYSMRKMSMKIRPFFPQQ
# Target: Fibrinogen beta chain (Homo sapiens) (UniProt P02675)
# Assay: small molecules displacing Tn7 from DD(E) complex – biochemical, fluorescence polarization, human fibrin, Tn7 probe, primary screen (AID 720508);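 also: 0% = plate median of compound wells and 100% = 10 µM Aha-Tn7 peptide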
# Conditions: FP displacement of FITC-Tn7 peptide from fibrin DD(E); at 8.3 µM; stronger effect = higher value; 0% = median of compound wells per plate
row,Compound,inhibition
1,O=C(NCC1(N2CCOCC2)CCCCC1)c1cc(Br)ccc1Cl,inactive: 2.06%
2,COc1cc(C(=O)NCC2(N3CCOCC3)CCCCC2)cc(OC)c1C,inactive: -2.08%
3,CCCCn1nnnc1C(c1ccccc1)N1CCC(n2c(=O)[nH]c3ccccc32)CC1 (stereo not given),inactive: 6.27%
4,O=c1[nH]c2ccccc2n1C1CCN(C(c2ccnc3ccccc23)c2nnnn2C2CCCC2)CC1 (stereo not given),inactive: -8.22%
5,COc1ccc(C(=O)NCC2(N3CCOCC3)CCCCC2)cc1OC,inactive: 0.82%
6,NC(=O)C1(Nc2ccccc2)CCN(Cc2ccccc2)CC1,inactive: -0.51%
7,O=c1[nH]c2ccccc2n1C1CCN(C(c2cccs2)c2nnnn2C2CCCCC2)CC1 (stereo not given),inactive: 1.23%
8,N/C(=N\O)c1c(N)no[n+]1[O-],inactive: -0.78%
9,COc1cccc(C(c2nnnn2C(C)(C)C)N2CCC(n3c(=O)[nH]c4ccccc43)CC2)c1OC (stereo not given),inactive: 4.42%
10,CCOC(=O)N1CCC(Nc2ccc(C)cc2)CC1,inactive: -1.18%
11,CCCCn1nnnc1C(c1cccc(OC)c1OC)N1CCC(n2c(=O)[nH]c3ccccc32)CC1 (stereo not given),inactive: -7.8%
12,O=c1[nH]c2ccccc2n1C1CCN(C(c2cccs2)c2nnnn2C2CCCC2)CC1 (stereo not given),inactive: -5.38%
13,O=C(OC1CN2CCC1CC2)C1c2ccccc2C=Cc2ccccc21 (stereo not given),inactive: 7.12%
14,CC(C)(C)OC(=O)N1CCC(N(C(=O)c2ccccc2)c2ccc(Cl)cc2)CC1,inactive: -7.55%
15,N#Cc1ccc(C(=O)NCC2(N3CCCCC3)CCCCC2)cc1,inactive: -0.09%
16,O=c1[nH]c2ccccc2n1C1CCN(C(c2ccccc2)c2nnnn2C2CCCC2)CC1 (stereo not given),inactive: 2.34%
17,CCCN1CCC(Nc2cc(OC)cc(OC)c2)CC1,inactive: 7.24%
18,Cc1cc(N(CCCl)CCCl)ccc1C=O,inactive: 5.89%
19,c1ccc(CN2CCC(Nc3ccccc3)CC2)cc1,inactive: 1.31%
20,C/C(N)=N\P(=O)(Oc1ccccc1)Oc1ccccc1,inactive: -2.79%
21,CN(C)C1(CNC(=O)c2cccc(C#N)c2)CCCCC1,inactive: 3.8%
22,CC(C)(C)n1nnnc1C(c1cccc2ccccc12)N1CCC(n2c(=O)[nH]c3ccccc32)CC1 (stereo not given),inactive: 1.93%

row,Compound,inhibition
1,O=c1[nH]c2ccccc2n1C1CCN(C(c2ccnc3ccccc23)c2nnnn2C2CCCCC2)CC1 (stereo not given),inactive: -6.58%
2,COc1cc(OC)cc(C(=O)NCC2(N3CCCCC3)CCCCC2)c1,inactive: 1.56%
3,CCC(c1nnnn1C1CCCCC1)N1CCC(n2c(=O)[nH]c3ccccc32)CC1 (stereo not given),inactive: -4.34%
4,CC(=O)N(c1ccccc1)C1CCNCC1,inactive: 3.69%
5,COc1cccc(C(c2nnnn2C2CCCCC2)N2CCC(n3c(=O)[nH]c4ccccc43)CC2)c1OC (stereo not given),inactive: 0.61%
6,Cc1ccc(NC2(C#N)CCN(Cc3ccccc3)CC2)cc1,inactive: 1.75%
7,Fc1ccccc1NC1CCN(Cc2ccccc2)CC1,inactive: -2.31%
8,Cc1ccc(C(=O)NCC2(N3CCCCC3)CCCCC2)o1,inactive: 7.32%
9,CC(C)(C)n1nnnc1C(c1ccnc2ccccc12)N1CCC(n2c(=O)[nH]c3ccccc32)CC1 (stereo not given),inactive: -2.82%
10,COc1ccc(C(c2nnnn2C2CCCCC2)N2CCC(n3c(=O)[nH]c4ccccc43)CC2)cc1 (stereo not given),inactive: 1.72%
11,CCN1CCC(Nc2cccc(F)c2)CC1,inactive: -10.3%
12,Cc1ccccc1NC1(C#N)CCN(Cc2ccccc2)CC1,inactive: -1.71%
13,Cn1c(=O)[nH]cc(N(CCCl)CCCl)c1=O,inactive: -3.73%
14,CN(C)c1ccc(C(=O)NCC2(N3CCCCC3)CCCCC2)cc1,inactive: 6.27%
15,O=C(NCC1(N2CCCCC2)CCCCC1)c1ccco1,inactive: 0.99%
16,CN1CCC(Nc2ccc(F)c(Cl)c2)CC1,inactive: -6.67%
17,CCOc1ncccc1C(=O)NCC1(N2CCOCC2)CCCCC1,inactive: 6.48%
18,CCCOc1ccc(C(=O)NCC2(N(C)C)CCCCC2)cc1,inactive: 2.62%
19,O=c1[nH]c2ccccc2n1C1CCN(C(c2cc3ccccc3o2)c2nnnn2C2CCCC2)CC1 (stereo not given),inactive: 3.73%
20,NN(c1ccccc1)C1CCN(CCc2ccccc2)CC1,inactive: -0.88%
21,O=C(O)C1(Nc2ccccc2)CCN(Cc2ccccc2)CC1,inactive: -0.22%
22,CC(C)(C)OC(=O)N1CCC(Nc2ccccc2)CC1,inactive: 2.06%

row,Compound,inhibition
1,CCC(CO)(C(=O)OC1CN2CCC1CC2)c1ccccc1 (stereo not given),inactive: -4.13%
2,COc1cccc(C(=O)N(c2cc(C)cc(C)c2)C2CCN(C(=O)OC(C)(C)C)CC2)c1,inactive: -0.06%
3,COc1cc(OC)cc(C(=O)NCC2(N3CCOCC3)CCCCC2)c1,inactive: -7.37%
4,COc1cccc(C(c2nnnn2C2CCCC2)N2CCC(n3c(=O)[nH]c4ccccc43)CC2)c1OC (stereo not given),inactive: 1.1%
5,CN1CCC(Nc2ccc(Cl)cc2)CC1,inactive: 0.82%
6,CCCCn1nnnc1C(c1cccs1)N1CCC(n2c(=O)[nH]c3ccccc32)CC1 (stereo not given),inactive: 4.48%
7,CCCCn1nnnc1C(CC)N1CCC(n2c(=O)[nH]c3ccccc32)CC1 (stereo not given),inactive: 3.01%
8,O=C(NCC1(N2CCCCC2)CCCCC1)c1cccs1,inactive: 0.46%
9,O=C(NCC1(N2CCCCC2)CCCCC1)c1ccc(=O)[nH]c1,inactive: 0.27%
10,CCC(c1nnnn1C1CCCC1)N1CCC(n2c(=O)[nH]c3ccccc32)CC1 (stereo not given),inactive: 0.6%
11,COc1ccc(C(=O)NCC2(N3CCCCC3)CCCCC2)c(OC)c1OC,inactive: -2.95%
12,CC(C)(C)OC(=O)N1CCC(N(C(=O)c2ccccc2)c2ccc(F)cc2)CC1,inactive: 2.5%
13,COc1ccc(C(=O)NCC2(N3CCCCC3)CCCCC2)cc1,inactive: -2.83%
14,Cc1cccc(NC2(C#N)CCN(Cc3ccccc3)CC2)c1,inactive: -6.02%
15,CSc1ccccc1C(=O)NCC1(N2CCCCC2)CCCCC1,inactive: 2.21%
16,O=C(NCC1(N2CCOCC2)CCCCC1)c1cc2ccccc2o1,inactive: -3.51%
17,Cc1cc(C)cc(N(C(=O)c2ccccc2)C2CCN(C(=O)OC(C)(C)C)CC2)c1,inactive: -3.37%
18,O=c1[nH]c2ccccc2n1C1CCN(C(c2ccccc2OC(F)(F)F)c2nnnn2C2CCCCC2)CC1 (stereo not given),inactive: -7.66%
19,O=C(NCC1(N2CCCCC2)CCCCC1)c1ccc(Cl)nc1,inactive: -1.05%
20,CCCCn1nnnc1C(c1ccc(OC)cc1)N1CCC(n2c(=O)[nH]c3ccccc32)CC1 (stereo not given),inactive: -1.22%
21,CCOC(=O)N1CCC(Nc2ccc(OC)cc2)CC1,inactive: -1.92%
22,COc1ccc(Cl)cc1C(=O)NCC1(N2CCOCC2)CCCCC1,inactive: -5.43%

row,Compound,inhibition
1,O=c1[nH]c2ccccc2n1C1CCN(C(c2cc3ccccc3o2)c2nnnn2C2CCCCC2)CC1 (stereo not given),inactive: 5.93%
2,O=C(OC1CN2CCC1CC2)C1c2ccccc2Oc2ccccc21 (stereo not given),inactive: -2.48%
3,O=C(NCC1(N2CCCCC2)CCCCC1)c1ccc(Cl)s1,inactive: -2.41%
4,N#CC1(Nc2ccccc2)CCN(Cc2ccccc2)CC1,inactive: 10%
5,CCOc1ccc(C)cc1CN(CCCl)CCCl,inactive: -7.44%
6,O=C1CCN(Cc2ccccc2)CC1,inactive: 5.68%
7,CC(C)(C)n1nnnc1C(c1ccccc1)N1CCC(n2c(=O)[nH]c3ccccc32)CC1 (stereo not given),inactive: -9.71%
8,CCOC(=O)N1CCC(Nc2ccc(F)cc2)CC1,inactive: 0.76%
9,COc1ccc(NC2CCN(CCc3ccccc3)CC2)c(OC)c1,inactive: 0.27%
10,O=C(NCC1(N2CCCCC2)CCCCC1)c1ccc(F)cc1,inactive: -7.44%
11,CCCCOc1ccc(C(=O)NCC2(N3CCOCC3)CCCCC2)cc1,inactive: -0.77%
12,CCCCn1nnnc1C(c1cc2ccccc2o1)N1CCC(n2c(=O)[nH]c3ccccc32)CC1 (stereo not given),inactive: 0.27%
13,O=P1(N(CCCl)CCCl)SCCCS1,inactive: -1.77%
14,O=c1[nH]c2ccccc2n1C1CCN(C(c2ccccc2)c2nnnn2C2CCCCC2)CC1 (stereo not given),inactive: 4.25%
15,O=c1[nH]c2ccccc2n1C1CCN(C(c2cccc3ccccc23)c2nnnn2C2CCCC2)CC1 (stereo not given),inactive: -3.82%
16,COc1cc(C(=O)NCC2(N(C)C)CCCCC2)ccc1OC(F)F,inactive: 2.03%
17,CCOC(=O)N1CCC(Nc2cccc(C)c2)CC1,inactive: 0.33%
18,O=C(NCC1(N2CCCCC2)CCCCC1)c1ccc(OC(F)F)cc1,inactive: -0.41%
19,CC(C)(C)n1nnnc1C(c1ccccc1OC(F)(F)F)N1CCC(n2c(=O)[nH]c3ccccc32)CC1 (stereo not given),inactive: 6.91%
20,O=C(NCC1(N2CCCCC2)CCCCC1)c1cccc([N+](=O)[O-])c1,inactive: -3.9%
21,CSc1ccc(C(=O)NCC2(N3CCOCC3)CCCCC2)cc1,inactive: -3.7%
22,N#CC1(Nc2ccccc2)CCN(CCc2ccccc2)CC1,inactive: 3.32%

row,Compound,inhibition
1,O=c1[nH]c2ccccc2n1C1CCN(C(c2ccccc2OC(F)(F)F)c2nnnn2C2CCCC2)CC1 (stereo not given),inactive: 2.58%
2,CCN1CCC(Nc2ccc(Cl)cc2)CC1,inactive: 4.95%
3,O=C(NCC1(N2CCCCC2)CCCCC1)c1cccc(C(F)(F)F)c1,inactive: 5.65%
4,CCCCn1nnnc1C(c1cccc2ccccc12)N1CCC(n2c(=O)[nH]c3ccccc32)CC1 (stereo not given),inactive: 2.67%
5,COc1ccc(NC2CCN(C(=O)OC(C)(C)C)CC2)cc1,inactive: 0.87%
6,CC(C)c1ccc(C(=O)NCC2(N3CCOCC3)CCCCC2)cc1,inactive: -3.24%
7,CN1CCN(CCOC(=O)C(O)(c2ccccc2)c2ccccc2)CC1,inactive: -3.23%
8,O=C(NCC1(N2CCOCC2)CCCCC1)c1cc(=O)[nH]c2ccccc12,inactive: -0.3%
9,COc1cc(C(=O)NCC2(N3CCCCC3)CCCCC2)ccc1OC(F)F,inactive: 0.88%
10,CN(C)c1cccc(C(=O)NCC2(N3CCCCC3)CCCCC2)c1,inactive: 4.3%
11,COC(=O)C1(Nc2ccccc2)CCN(Cc2ccccc2)CC1,inactive: 1.9%
12,COc1ccc(CN(CCCl)CCCl)cc1Cl,inactive: -3.07%
13,CC(C)c1ccc(NC2CCN(C(=O)OC(C)(C)C)CC2)cc1,inactive: 3.06%
14,CCCCn1nnnc1C(c1ccnc2ccccc12)N1CCC(n2c(=O)[nH]c3ccccc32)CC1 (stereo not given),inactive: 4.16%
15,O=C(NCC1(N2CCOCC2)CCCCC1)c1cc(F)c(F)cc1Cl,inactive: -5.24%
16,CCC(c1nnnn1C(C)(C)C)N1CCC(n2c(=O)[nH]c3ccccc32)CC1 (stereo not given),inactive: 2.05%
17,COc1cc(OC)c(C(=O)NCC2(N(C)C)CCCCC2)cc1OC,inactive: 0.72%
18,O=C(NCC1(N2CCCCC2)CCCCC1)c1cncc(Br)c1,inactive: 3.08%
19,CN1CCC(Nc2cccc(F)c2)CC1,inactive: 1.05%
20,CCCOc1ccc(C(=O)NCC2(N(C)C)CCCCC2)cc1OC,inactive: 1.46%
21,Cc1ccc(C(=O)NCC2(N(C)C)CCCCC2)o1,inactive: -2.37%
22,COc1ccc(C(c2nnnn2C2CCCC2)N2CCC(n3c(=O)[nH]c4ccccc43)CC2)cc1 (stereo not given),inactive: -10.4%

# Source: PubChem BioAssay AID720508 (The Scripps Research Institute Molecular Screening Center, 2013)
